The target of this experiment is cyclin A (endogenous) (human (endogenous in HCT116 and RPE-hTERT)) (UniProt P20248). The experiment can be described thus: co-IP.

Regarding “Cdk2 (wild-type) (from UniProt P24941 1-298) (enzyme)”, the fold more than Cdk1 in cyclin A complexes was 2 fold.

These data come from paper PMC3119039 (2011).
